Measurements from patent publication US20240208992A1, “MACROCYCLES AS CFTR MODULATORS” (Idorsia Pharmaceuticals Ltd, priority 2021, published 2024).

Protein sequences, listed by entry. Tags and fused reporters are not part of them. Chains listed by the source or under a name are the forms on record and can include a tag or linker.
UniProt P13569, with tags, fused parts or gaps DEL508-508: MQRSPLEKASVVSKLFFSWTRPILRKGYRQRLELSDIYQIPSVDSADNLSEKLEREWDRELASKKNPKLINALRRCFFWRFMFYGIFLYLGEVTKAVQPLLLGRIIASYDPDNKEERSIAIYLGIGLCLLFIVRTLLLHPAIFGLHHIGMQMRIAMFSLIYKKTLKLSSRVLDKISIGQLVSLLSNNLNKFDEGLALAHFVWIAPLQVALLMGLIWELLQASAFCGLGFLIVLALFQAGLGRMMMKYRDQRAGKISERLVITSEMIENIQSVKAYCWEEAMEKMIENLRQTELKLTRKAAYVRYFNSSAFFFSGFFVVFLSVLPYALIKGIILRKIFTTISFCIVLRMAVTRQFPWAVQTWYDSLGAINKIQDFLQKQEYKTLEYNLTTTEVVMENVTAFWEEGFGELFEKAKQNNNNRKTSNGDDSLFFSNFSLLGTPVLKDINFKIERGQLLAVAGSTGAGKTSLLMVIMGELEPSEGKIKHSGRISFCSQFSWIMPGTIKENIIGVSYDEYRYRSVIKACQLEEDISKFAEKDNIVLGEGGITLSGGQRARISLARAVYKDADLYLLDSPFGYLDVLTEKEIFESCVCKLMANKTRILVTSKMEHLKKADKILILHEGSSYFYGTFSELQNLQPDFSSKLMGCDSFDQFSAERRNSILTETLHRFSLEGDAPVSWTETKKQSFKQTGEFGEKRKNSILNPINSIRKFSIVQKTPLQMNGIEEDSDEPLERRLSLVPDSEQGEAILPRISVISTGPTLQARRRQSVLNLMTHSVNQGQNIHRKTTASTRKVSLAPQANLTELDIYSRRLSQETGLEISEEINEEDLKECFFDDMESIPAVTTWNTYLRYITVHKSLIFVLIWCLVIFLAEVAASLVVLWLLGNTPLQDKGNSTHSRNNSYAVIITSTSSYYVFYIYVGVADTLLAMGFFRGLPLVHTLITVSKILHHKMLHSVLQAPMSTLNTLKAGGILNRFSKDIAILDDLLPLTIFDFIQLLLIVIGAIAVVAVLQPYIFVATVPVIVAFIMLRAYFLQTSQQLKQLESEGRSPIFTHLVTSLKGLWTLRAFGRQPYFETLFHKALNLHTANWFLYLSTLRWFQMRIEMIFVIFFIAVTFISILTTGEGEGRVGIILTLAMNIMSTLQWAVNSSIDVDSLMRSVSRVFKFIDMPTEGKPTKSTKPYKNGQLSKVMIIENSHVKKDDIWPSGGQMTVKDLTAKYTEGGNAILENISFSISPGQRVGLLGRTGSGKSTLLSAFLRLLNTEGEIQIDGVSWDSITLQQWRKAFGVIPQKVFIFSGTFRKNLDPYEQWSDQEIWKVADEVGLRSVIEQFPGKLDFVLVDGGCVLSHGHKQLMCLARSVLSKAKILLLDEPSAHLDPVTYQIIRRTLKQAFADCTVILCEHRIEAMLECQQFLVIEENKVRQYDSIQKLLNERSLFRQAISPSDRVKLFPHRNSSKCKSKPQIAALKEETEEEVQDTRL

Target: human F508del-CFTR (Homo sapiens, UniProt P13569, DEL508-508)
Experiment: F508del-CFTR cell surface expression (corrector activity), DiscoveRx ß-galactosidase complementation chemiluminescence assay in recombinant U2OS cell line;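 also: U2OS cells co-expressing ProLink-tagged F508del-CFTR and a membrane-anchored enzyme acceptor, where more surface CFTR restores β-galactosidase activity measured by chemiluminescence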
Settings: for EC50: F508del-CFTR cell surface expression
[1] = U2OS cells, 16h compound incubation, geomean values
[2] = in relation to Emax of corrector lumacaftor (=100%), arithmetic mean values

SMILES: COc1cccc2c1C(=O)N[C@H](C(=O)NCCc1ccc(Br)cc1)CC(=O)N(C)[C@@H](CC(C)C)C(=O)N1CCOC[C@@H]1C(=O)N[C@H](Cc1ccccc1)CO2
- EC50 (U2OS cell line, 16h compound incubation, geomean values): 428 nM
- Emax (in relation to the Emax of the corrector lumacaftor (=100%), U2OS cell line, 16h compound incubation, arithmetic mean values): 136%

SMILES: CC(C)CC1C(=O)N(CC2COc3ccccc3C2)CC(=O)NC(Cc2ccccc2)COc2ccc3ccccc3c2C(=O)NC(C(=O)NCCc2ccc3c(c2)OCO3)CC(=O)N1C (centres unmarked)
- EC50 [1]: 187 nM
- Emax [2]: 211%

SMILES: COc1cc2c(cn1)OC[C@@H](Cc1ccccc1)NC(=O)C1CCCCN1C(=O)[C@H](CC(C)C)N(C)C(=O)C[C@@H](C(=O)NCCc1nc(C3CC3)no1)NC2=O (some centres unmarked)
- EC50 [1]: 518 nM
- Emax [2]: 140%

SMILES: CC(C)C[C@H]1C(=O)N(C)[C@H](Cc2nc(-c3ccc(F)cn3)no2)C(=O)N[C@H](Cc2ccccc2)COc2ccc3ncc(F)cc3c2C(=O)N[C@H](C(=O)NC[C@H](O)c2nc(C3CC3)no2)CC(=O)N1C
- EC50 (U2OS cells, 16h compound incubation, geomean of several measurements): 1490 nM
- Emax (in relation to the Emax of the corrector lumacaftor (=100%), U2OS cells, 16h compound incubation, arithmetic mean): 402%
